Source: article PMC8016166, “Identification of a Potent and Selective 5-HT1A Receptor Agonist with In Vitro and In Vivo Antinociceptive Activity” (ACS Chemical Neuroscience, 2020)

Sequences of proteins named here, by UniProt entry; tags and fusion partners are left off.
UniProt P19327, whole entry: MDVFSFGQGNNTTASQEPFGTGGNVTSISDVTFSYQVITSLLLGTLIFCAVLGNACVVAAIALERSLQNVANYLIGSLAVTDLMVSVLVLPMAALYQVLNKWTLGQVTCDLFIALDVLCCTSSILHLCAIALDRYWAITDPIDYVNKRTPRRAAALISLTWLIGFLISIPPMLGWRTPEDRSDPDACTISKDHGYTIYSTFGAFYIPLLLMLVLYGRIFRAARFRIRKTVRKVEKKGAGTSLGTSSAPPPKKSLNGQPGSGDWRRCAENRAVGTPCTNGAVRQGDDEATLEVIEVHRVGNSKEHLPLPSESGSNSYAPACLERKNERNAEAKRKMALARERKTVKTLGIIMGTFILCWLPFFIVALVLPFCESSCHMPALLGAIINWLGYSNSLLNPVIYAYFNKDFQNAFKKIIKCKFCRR

Molecular target: T1, 5-HT1AR (Rattus norvegicus, UniProt P19327)
T1 construct: from tissue; hippocampus per the main-text methods
Assay: [35S]GTPγS functional 5-HT1A assay in rat hippocampal membranes
Format: biochemical
Experimental: Male Sprague–Dawley rats were decapitated and their brains removed and placed on ice. The hippocampi (for the functional 5-HT1A receptor assay) or frontal cortexes (for the competitive 5-HT2A and 5-HT2C receptor assays) were dissected and homogenized with a glass homogenizer in 30 vol. ice-cold TED buffer (50 mMTris-HCl, 1 mM EDTA, 1 mM dithiotheritol, pH 7.4). Next, the homogenate was centrifuged at 21 000g for 30 min at 4 °C. The pellet was suspended in 30 vol TED buffer (pH 7.4) and incubated in a water bath for 10 min at 37 °C to remove endogenous ligands. The suspension was centrifuged again at 21 000g for 30 min at 4 °C. […]
The [^35S]GTPγS assay was performed according to the method described previously.[49] […] Nonspecific binding was determined with 100 μM of unlabeled GTPγS. […] The radioactivity was counted in a Trilux MicroBeta^2 counter (PerkinElmer, USA). The data were analyzed with GraphPad Prism 5.0 software (GraphPad Software, San Diego California USA, www.graphpad.com). […]
The curves were fitted with a one-site nonlinear regression model. Efficacy (Emax) and potency (pEC50) were calculated from […] from three separate experiments and expressed as the means ± SEM. […] The differences in compound potency and efficacy were evaluated with one-way ANOVA followed by the Bonferroni’s post-hoc test. […]

Work on `NCCc1c[nH]c2ccc(O)cc12` [serotonin, reference compound] yielded an EC50 of 158 nM.
